{"source": "patent US8715718B2", "about": "“Extracellular matrix production from nanoscale substrate” (Rutgers, The State University of New Jersey, priority 2006, dated 2014)", "key": {"[1]": {"test_system": "Human foreskin fibroblasts", "assay": "Imaging of fibronectin matrix assembly as a function of carrier size and ligand density", "type": "cell-based", "details": "ligand-ANC in media instead of adsorbed", "description": "Matrix assembly was analyzed as a function of ligand carrier size and ligand density. Substrates with equal levels of ligand but differential presentation were adsorbed in 8-well Labtek chamber slides overnight at 4° C. Substrates were then washed generously with PBS and blocked with BSA for 1 hour at 37° C. Fibroblasts were serum-starved at least 12 hours prior to trypsinization and re-plated at a density of 35,000 cells per well in serum free media. Cells were then cultured for 24 hours at 37° C. After 24 hour incubation, media was removed and substrates were washed with DPBS with calcium and magnesium. Cells were fixed with 1% formaldehyde for 9 minutes and washed with DPBS with calcium and magnesium. Cells were permeabilized with Triton-X 100 for 15 minutes and washed with DPBS with calcium and magnesium and blocked with 1% BSA for 1 hour at 37° C. Substrates were washed and primary antibody IST-4 (Sigma) for fibronectin that binds to the 5th type III repeat of human plasma fibronectin was incubated at a 1:100 dilution in PBS overnight at 4° C. Substrates were washed and incubated with FITC-conjugated donkey anti-mouse IgG (Jackson Immunolabs, West Grove, Pa.) at a 1:200 dilution for 30 minutes at room temperature, and were then washed and incubated with Texas-red phalloidin (Molecular Probes, Eugene, Oreg.) for 20 minutes at room temperature. […]"}, "[2]": {"test_system": "Human foreskin fibroblasts, HFF", "assay": "Cell-mediated aggregation/mobilization of Texas Red-labeled FNf-ANP", "type": "cell-based", "details": "24 hours, Texas Red-labeled FNf-ANP 1.70 μg/cm^2", "description": "Texas Red-labeled FNf-ANPs: Texas Red fluorophore (480 μg) was added to the albumin solution (30 ml reaction volume) at the final stirring step (37° C.), which is when ANPs begins to form, to incorporate Texas Red into the ANP. Non-encapsulated Texas Red was removed by dialysis. FNf were conjugated to Texas Red-labeled FNf-ANPs as described above.\nIn an experiment illustrated by FIG. 5c HFF were seeded on Texas Red-labeled FNf-ANP [1.70 μg/cm^2] and after 24 hours, fixed and stained for F-actin (panel B and E) with fluorescein-phalloidin. Panels A and D depict Texas Red FNf-ANP, and panels C and F are overlay images of labeled FNf-ANP and actin staining. Bar, 40"}, "[3]": {"test_system": "Human foreskin fibroblasts, HFF", "assay": "Cell adhesion assay (hexosaminidase)", "type": "cell-based", "details": "60 minutes", "description": "To quantify cell attachment to FNf-ANPs, 96-well non-tissue culture dishes were coated overnight at 4° C. with FNf-ANPs or FNf as described above. Wells were washed with PBS and blocked with 1% bovine serum albumin. After washing with PBS, HFF were plated at 2.5×10^4 cells/well and incubated for 60 minutes at 37° C. Medium and unbound cells were removed by inversion of the plate and two washes with PBS. Quantification of the number of adherent cells was performed using the hexosaminidase assay. Briefly, substrate composed of a 1:1 mixture of 0.5% Triton-X 100 and 7.5 mM β-nitrophenyl N-acetyl β-D glucosaminide in 0.1 M citrate buffer, pH 5.0, was added to each well and incubated for 90 minutes at 37° C. The reaction was terminated with 50 mM glycine/5 mM EDTA, pH 10.4 and the absorbance read at 405 nm on a multiwell plate reader.\n(§1) To analyze cellular morphology, shape factors were quantified for all conditions. […] Selected studies were also conducted to examine early cell attachment behavior on surfaces adsorbed with each of the four FNf-ANP preparations described above or corresponding FNf alone, such that levels FNf display were equivalent between each modality of ligand display as determined by ELISA."}, "[4]": {"test_system": "ligand-occupied β1 integrins", "assay": "Localization of ligand-occupied β1 integrin (clone 12G10 staining)", "type": "cell-based, human", "details": "HFF", "description": "(§2) Labtek chamber slides (Nalge Nunc International, Rochester, N.Y.) were coated overnight at 4° C. with FNf-ANPs or FNf as described above to attain equivalent display with FNf. […] Fibroblasts were seeded at densities and incubated for times described in each figure legend. After incubation at 37° C., samples were fixed with either 20 or 3.7% formaldehyde for 9 minutes or 15 minutes, respectively, and permeabilized with 0.5% Triton-X 100 for 20 minutes; only samples stained with anti-fibronectin antibody (clone IST-4) or anti-integrin β1 were fixed with 2% formaldehyde. Samples were then incubated with primary antibodies in blocking buffer (3% BSA) for 1 hour, washed, and further incubated with the appropriate secondary antibodies for 1 hour. Where indicated, cells were also incubated with TexasRed X- or fluoroscein-conjugated phalloidin to visualize F-actin. Cells were examined using a Leica SP/2 Confocal Laser Scanning Microscope.\nThe α5β1 integrin transmits cytoskeleton-generated tension to the extracellular fibronectin molecules via a specific local pattern of integrin movement. Pankov et al, J Cell Biol 148 (5): 1075 (2000). To determine whether presentation of FNf via ANPs promotes fibronectin matrix assembly by regulating the dynamics of β1 integrins, a time course of the localization of ligand-occupied β1 on FNf and FNf-ANP was performed. A cation and ligand-induced binding site (CLIBS) class of monoclonal antibody (clone 12G10), that recognizes an extracellular epitope expressed after ligand occupation of human β1 integrin receptors was employed.\nFIG. 5a illustrates the results of an experiment wherein HFF (2.7×10^4 cells/cm^2) were seeded on the highest concentration [1.70 μg/cm^2] of FNf or FNf-ANP and fixed after 2 and S hours. Cells were stained with a monoclonal anti-active 131 antibody (clone 12G 10), followed by Alexa Fluor 488-conjugated anti-mouse IgG. F-actin was visualized by staining with Texas Red-X phalloidin. Panels B, D, F, H, are overlay images of 131 and actin staining. Arrows denote translocating β1. Bar, 20 μm. […]"}, "[5]": {"test_system": "Human foreskin fibroblasts, HFF", "assay": "Fibronectin matrix assembly by HFF, immunofluorescence and image analysis", "type": "cell-based", "description": "as §2\nIn order to discern HFF-derived fibronectin from the FNf conjugated to ANPs or adsorbed to the substrate, an anti-fibronectin monoclonal antibody whose epitope lies outside of the 9th-10th type III repeat of the FNf was used to stain for fibronectin in these assays; the epitope for the monoclonal anti-fibronectin antibody is located in the 5th type III repeat of human fibronectin.\nHFF were seeded on FNf-ANPs or FNf pre-coated surfaces prepared as described above. Two hours after seeding, ceils were treated with Y27632 (3 μM). Cells were cultured overnight at 37° C. before being processed for immunofluorescenee. For soluble FNf-ANP studies, HFF were seeded on non-coated Labtek chamber slides for 2 hours before being incubated with FNf-ANPs or FNf at concentrations used for surface adsorption as described above. Cells were cultured overnight at 37° C. in the continued presence of FNf-ANPs or FNf and processed for immunofluorescence.\nTwo-dimensional image analysis was performed on cell specimens double-stained with Texas Red-phalloidin (red for actin) and FITC-labeled secondary antibody against cell-secreted fibronectin antibody (green for fibronectin) using Image Pro Plus, version 5.0 (Media Cybemctics, Silver Spring, Md.). To examine fibronectin fibril coverage found only in the extracellular matrix, a semi-automated method was developed to identify fibrils only found in the extracellular matrix and assess assembly. Briefly, the images were filtered, segmented and analyzed to determine the extent of fibronectin assembled in the ECM in terms of the area occupied by fibronectin fibrils. Within each actin-stained image, the upper and lower, boundaries of the red fluorescence intensity were prescribed with a view to minimize the selection of all the pixels in the field corresponding to the actin stain (red) and to maximize the pixels that corresponded to the unlabeled ECM. The fibronectin stained image (green) was then used to prescribe the upper and lower boundaries of the green fluorescence intensity so that the selection of the green corresponding to fibronectin fibrils was maximized. The intensity range values from the red and green image were then applied to discriminate the fibronectin label within the ECM space using the overlay image of actin and fibronectin staining. By simultaneously applying the obtained values for the green and red fluorescent ranges to the overlay image, only the colocalized pixels that corresponded to both fibronectin and ECM space were identified, thus excluding intracellular fibronectin. Once these objects were selected and outlined, the area of these objects was determined by Image Pro and converted to squared micrometer units based on the objective and zoom factor used during image acquisition. This process was validated through effective comparison of the extent of matrix assembly obtained via semi-automated analysis to that obtained via manual thresholding.\nA major function of fibroblasts is to assemble fibronectin into matrix fibrils. […]"}, "[6]": {"test_system": "Human foreskin fibroblasts, HFF", "assay": "Cell morphology by F-actin staining and shape factor", "type": "cell-based", "description": "as §2\nTo characterize the effect of nanoparticle display of FNf on early cellular responses, adhesion and morphology were examined. […] These trends in cell morphogenesis support the low cell attachment achieved with FNf compared to that attained with FNf-ANP. Next, we extended the culture time of human foreskin fibroblasts (“HFF”) on FNf-ANPs or equivalent FNf, and evaluated cellular morphology. HFF (2.3×10^4 cells/cm^2) were cultured for 5 hours on surfaces prepared as described in Materials and Methods, then stained for F-actin with Texas Red X-conjugated phalloidin. Bar, 40 μm.\nas §1"}}}
{"substance": "FNf-ANP: fibronectin fragment (GST fusion, type III repeats 9-10) covalently conjugated to the surface of 100 nm albumin nanoparticles", "values": [{"measurement": "matrix assembly with ligand-ANC supplemented to the media", "setting": "[1]", "value": "matrix assembly was not evident"}, {"measurement": "FNf-ANP aggregation after plasma treatment of surfaces", "setting": "[2]", "value": "decreased the overall amount of FNf-ANP aggregation"}, {"measurement": "number of cells attached relative to equivalent surface-adsorbed FNf", "setting": "[3]; all concentrations other than the lowest", "value": "marked increase in the number of cells attached"}, {"measurement": "cell attachment", "setting": "[3]; lowest amount of ligand tested", "value": "no detectable attachment"}, {"measurement": "concentration of ligand-occupied β1 integrins versus FNf alone", "setting": "[4]; 5 hours of culture", "value": "remained higher"}, {"measurement": "β1 organization after oxygen plasma pre-treatment of surface", "setting": "[4]; plasma-treated surface", "value": "loss of linear organization of β1 along actin filaments"}, {"measurement": "ligand-occupied β1 in focal contacts versus equivalent adsorbed FNf", "setting": "[4]; two hours after plating, 1.70 μg/cm^2", "value": "more enriched"}, {"measurement": "deposition of fibronectin into the ECM when presented via the culture medium", "setting": "[5]; HFF on bare coverglass, ligand added to media, overnight", "value": "not sufficient"}, {"measurement": "assembly of fibronectin into matrix fibrils, FNf-ANP versus adsorbed FNf", "setting": "[5]; HFF, 24 hours, highest densities of FNf", "value": "dramatic increase"}, {"measurement": "increase in surface area occupied by fibronectin matrix fibrils versus equivalent density of surface adsorbed FNf", "setting": "[5]; HFF, 24 hours, image analysis of extracellular fibronectin, p=0.004", "value": 42, "unit": "%"}, {"measurement": "matrix deposition of HFF-derived fibronectin, FNf-ANP versus adsorbed FNf", "setting": "[5]; HFF, 24 hours, lowest levels of FNf ligand", "value": "no obvious difference"}, {"measurement": "extracellular fibrils of fibronectin, media presentation compared to substrate presentation", "setting": "[5]; HFF, image analysis", "value": "significantly fewer"}, {"measurement": "fibronectin matrix fibrils in the extracellular space, immobilized versus non-immobilized surfaces", "setting": "[5]; oxygen plasma, image analysis, p=0.0002", "value": "significantly decreased levels"}, {"measurement": "fibronectin matrix assembly, immobilized versus non-immobilized surfaces", "setting": "[5]; surface pre-treated with oxygen plasma, 1.70 μg/cm^2", "value": "inhibited fibronectin matrix assembly"}, {"measurement": "cell spreading (morphology)", "setting": "[6]; 45 minutes post seeding", "value": "well spread"}, {"measurement": "cell morphology", "setting": "[6]; 5 hours of culture, F-actin staining", "value": "stellate shape with long, slender projections"}, {"measurement": "shape factor, (perimeter)^2/(4π(area))", "setting": "[6]; 5 hours, about 25 cells per condition, all FNf densities", "value": "6-10"}]}
